This note sets out measurements from patent US20100184799A1, “OXADIAZOLE BETA CARBOLINE DERIVATIVES AS ANTIDIABETIC COMPOUNDS” (priority 2009, published 2010).

By UniProt entry, the sequences of proteins in these tests, tags left out.
UniProt P32745, whole entry: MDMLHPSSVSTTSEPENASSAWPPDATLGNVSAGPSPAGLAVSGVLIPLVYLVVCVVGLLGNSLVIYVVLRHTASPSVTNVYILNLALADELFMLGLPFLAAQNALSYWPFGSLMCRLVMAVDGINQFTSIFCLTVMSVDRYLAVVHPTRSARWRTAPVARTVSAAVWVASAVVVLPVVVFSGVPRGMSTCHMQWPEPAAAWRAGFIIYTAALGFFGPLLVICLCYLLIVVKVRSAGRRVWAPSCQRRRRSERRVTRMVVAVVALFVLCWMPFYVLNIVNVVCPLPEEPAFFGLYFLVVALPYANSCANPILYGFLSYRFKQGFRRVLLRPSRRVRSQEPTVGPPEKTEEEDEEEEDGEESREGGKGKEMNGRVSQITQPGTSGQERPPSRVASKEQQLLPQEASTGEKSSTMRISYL

Each structure is given as a SMILES string. pKi: −log10 of the molar value.

In this test the target is SSTR3 (Homo sapiens, UniProt P32745). In words: SSTR3 receptor-ligand binding assay, (3-125I-Tyr11)-SRIF-14 radioligand, CHO-K1 cell membranes. The settings on record: read-out: SSTR3 Ki; cloned human SSTR3, CHO-K1 membranes, 0.1 nM radioligand.
As for `CCn1cc(C2(c3nnc(O)o3)N[C@@H](c3nc(-c4ccc(F)cc4)c[nH]3)Cc3c2[nH]c2ccccc32)cn1` (stereo partly drawn), the negative logarithm of the Ki (pKi) is 8.66.

As to `CCn1nc(C2(c3nnn(C)n3)N[C@@H](c3nc(-c4ccc(F)cn4)c[nH]3)Cc3c2[nH]c2ccccc32)oc1=O` (stereo partly drawn), the pKi is 7.64.

As to `CCn1nc([C@]2(C)N[C@@H](c3nc(-c4ccc(F)cn4)c[nH]3)Cc3c2[nH]c2ccccc32)oc1=O`, the pKi is 7.51.

Turning to `COCc1nc(C2(c3nn(C)c(=O)o3)N[C@@H](c3nc(-c4ccc(F)cn4)c[nH]3)Cc3c2[nH]c2ccccc32)no1` (stereo partly drawn), the negative logarithm of the Ki (pKi) was 8.33.

Turning to `COCc1nc(C2(c3nnc(O)o3)N[C@@H](c3nc(-c4ccc(F)cn4)c[nH]3)Cc3c2[nH]c2ccccc32)no1` (stereo partly drawn), the negative logarithm of the Ki (pKi) is 8.33.

For `CSc1nnc(C2(c3cnn(C)c3)N[C@@H](c3nc(-c4ccc(F)cn4)c[nH]3)Cc3c2[nH]c2ccccc32)o1` (stereo partly drawn), the pKi was 8.52.

As to `Cc1nc(C2(c3nnc(N)o3)N[C@@H](c3nc(-c4ccc(F)cc4)c[nH]3)Cc3c2[nH]c2ccccc32)no1` (stereo partly drawn), the pKi is 8.38.

With `Cc1nc(C2(c3nnc(O)o3)N[C@@H](c3nc(-c4ccc(F)cc4)c[nH]3)Cc3c2[nH]c2ccccc32)no1` (stereo partly drawn), the pKi is 7.80.

Turning to `Cn1cc(C2(c3nn(C)c(=O)o3)N[C@@H](c3nc(-c4ccc(F)cc4)c[nH]3)Cc3c2[nH]c2ccccc32)cn1` (stereo partly drawn), the pKi is 8.47.

Take `Cn1nc(C2(c3cnn(C4CC4)c3)N[C@@H](c3nc(-c4ccc(F)cn4)c[nH]3)Cc3c2[nH]c2ccccc32)oc1=O` (stereo partly drawn): the negative logarithm of the Ki (pKi) is 8.77.

On to `Cn1nnc(C2(c3nnc(O)o3)N[C@@H](c3nc(-c4ccc(F)cn4)c[nH]3)Cc3c2[nH]c2ccccc32)n1` (stereo partly drawn), for which the negative logarithm of the Ki (pKi) is 6.24.

Consider `Oc1nnc(C2(c3cnn(C4CC4)c3)N[C@@H](c3nc(-c4ccc(F)cn4)c[nH]3)Cc3c2[nH]c2ccccc32)o1` (stereo partly drawn), for which the negative-log Ki (pKi) is 8.49.

As for `CCn1nc(C2(c3ccc(C#N)cc3)N[C@@H](c3nc(-c4ccc(F)cn4)c[nH]3)Cc3c2[nH]c2ccccc32)oc1=O` (single isomer, unassigned) [16], the pKi was 8.25.

Regarding `CCn1nc(C2(c3ccc(C#N)cc3)N[C@@H](c3nc(-c4ccc(F)cn4)c[nH]3)Cc3c2[nH]c2ccccc32)oc1=O` (single isomer, unassigned) [17], the negative-log Ki (pKi) was 7.74.

`Cn1cc(C2(c3nnc(O)o3)N[C@@H](c3nc(-c4ccc(F)cc4)c[nH]3)Cc3c2[nH]c2ccccc32)cn1` (single isomer, unassigned) [18]: the pKi is 8.66.

As to `Cn1cc(C2(c3nnc(O)o3)N[C@@H](c3nc(-c4ccc(F)cc4)c[nH]3)Cc3c2[nH]c2ccccc32)cn1` (single isomer, unassigned) [19], the negative-log Ki (pKi) was 7.63.

Turning to `CCn1nc(C2(c3noc(COC)n3)N[C@@H](c3nc(-c4ccc(F)cn4)c[nH]3)Cc3c2[nH]c2ccccc32)oc1=O` (single isomer, unassigned) [40], the pKi was 8.64.

Consider `CCn1nc(C2(c3noc(COC)n3)N[C@@H](c3nc(-c4ccc(F)cn4)c[nH]3)Cc3c2[nH]c2ccccc32)oc1=O` (single isomer, unassigned) [41], for which the negative logarithm of the Ki (pKi) is 7.80.

With `CCn1nnc(C2(c3nnc(O)o3)N[C@@H](c3nc(-c4ccc(F)cn4)c[nH]3)Cc3c2[nH]c2ccccc32)n1` (single isomer, unassigned) [44], the negative-log Ki (pKi) is 6.60.

Regarding `CCn1nnc(C2(c3nnc(O)o3)N[C@@H](c3nc(-c4ccc(F)cn4)c[nH]3)Cc3c2[nH]c2ccccc32)n1` (single isomer, unassigned) [45], the negative logarithm of the Ki (pKi) is 7.98.

Turning to `CCn1nnc(C2(c3nn(C)c(=O)o3)N[C@@H](c3nc(-c4ccc(F)cn4)c[nH]3)Cc3c2[nH]c2ccccc32)n1` (single isomer, unassigned) [46], the negative-log Ki (pKi) was 8.54.

As for `CCn1nnc(C2(c3nn(C)c(=O)o3)N[C@@H](c3nc(-c4ccc(F)cn4)c[nH]3)Cc3c2[nH]c2ccccc32)n1` (single isomer, unassigned) [47], the negative-log Ki (pKi) was 7.46.

Turning to `Cn1cc(C2(c3nnc(O)o3)N[C@@H](c3nc(-c4ccc(F)cn4)c[nH]3)Cc3c2[nH]c2ccccc32)cn1` (single isomer, unassigned) [Example 20], the negative-log Ki (pKi) was 6.40.

As for `Cn1cc(C2(c3nnc(N)o3)N[C@@H](c3nc(-c4ccc(F)cc4)c[nH]3)Cc3c2[nH]c2ccccc32)cn1` (single isomer, unassigned) [Example 52], the negative logarithm of the Ki (pKi) is 8.89.

As a reminder, the pKi is the Ki on a negative log10 scale, so that one unit is a factor of ten.
